The values that follow come from doi:10.1101/2025.07.23.666285.

In the experiment the target is stapled Myc_B1 peptide. The experiment is described as follows: BLI. In general terms: In BLI a coated tip is dipped into the sample, and binding shifts an interference pattern.

Consider “truncated WDR5 (amino acids 22–334) (from UniProt P61964 22-334) (domain or fragment)”, for which the dissociation constant (Kd) – broadly, the free concentration of one partner at which half of the binding sites on the other are occupied at equilibrium, for simple one-to-one binding – was determined as 39 nM.
